The nature of data set [1]: Daily 5+ ATP to rats for six days, 5+ ATP/1+ ATP ratio in dried blood spots by mass spectrometry. As to conditions: dried blood spots from tail nicks, six day period, 100 mcg daily. An excerpt:
Once each day, blood spot samples were taken from each rat and dried.
The in vivo ATP pool is large, the half-life of ATP is relatively long, 3 days in rats, corresponding to about 10 days in humans.

The conditions of data set [2]: rats, 0.2 mg oral 5+ adenine doses, dried blood spots.

Take 5+ adenosine triphosphate [5+ ATP]: in data set [1], the “ratio of +5 ATP to +1 ATP over time” value is “increases in a predictable manner”. In addition, in data set [2], the washout half-life entry is given as “approximately 10 days”.

The values above are taken from patent US20230233144A1, “Method for Determining Medication Adherence and Taggants Therefo” (The Regents of the University of Colorado, A Body Corporate, priority 2021, published 2023).
